{"source": "paper PMC10279755", "about": "(Nature Communications, 2023)", "origin": "cited, not measured here", "target": "aminopeptidase N (APN, also known as CD13)", "design": "method as in PMID 15992355", "conditions": "reported value; cited from earlier work"}
{"compound": "COc1cc(/C=C/C(=O)CC(=O)/C=C/c2ccc(O)c(OC)c2)ccc1O", "note": "[curcumin]", "values": [{"measurement": "IC50", "value": 10, "unit": "µM"}]}
